Screens as filed in PubChem.
Most compounds without a hit are left out; they make up all but 0.91% or so of the library.
Statin myotox sup = suppressors of simvastatin-induced myotoxicity in C2C12 myotubes. ATP luminescence, 48 h; scaled: DMSO 0, geranylgeraniol control 100. rescue of ATP level, % at 7.49 µM. actives 0.78% (n = 330,000). AID 602340;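 active means mean ATP rescue above about 67%, or every replicate alone reaching that limit, limit read from the data, passing the limit was not always enough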;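 further: myotubes were challenged with 10 µM simvastatin during compound exposure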
iPSC survival up = enhancers of human iPSC single-cell survival | hiPSC single-cell survival, ATPlite luminescence; 100% = ROCK inhibitor wells, 0% = DMSO | survival enhancement, % at 20 µM | actives 0.044% (n = 360,000); in the data active means survival enhancement above about 18%;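 further: cells exposed to compounds for 16 hours before the ATP read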
FN deposition inh = fibronectin deposition inhibition; actives 0.086% (n = 350,000); AH1F fibroblasts, Alexa488-fibronectin deposition fluorescence, overnight; inhibition, % at 12.6 µM;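 active means mean inhibition across replicates of 30% or more, regardless of how many single replicates reach that level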;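 further: positive control wells lacked labelled fibronectin entirely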
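Material: AH1F fibroblasts assembling fluorescent fibronectin matrix; amount: 10000 AH1F cells/well; medium: DMEM, 2% serum; reagent: Alexa488-fibronectin, 24 nM final in well; dosing: single compound dose, delivered by pin transfer; incubation: 1 h adhesion, overnight exposure; detection: fluorescence after three HBSS washes, excitation 485 nm, emission 525 nm; measure: fibronectin deposition inhibition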
PGC1a acetyl inh = modulators of PGC1a acetylation. U2OS PGC1a acetylation, AlphaScreen anti-acetyl-lysine; with virally co-expressed GCN5 acetyltransferase. inhibition, % at 15.6 µM. actives 0.17% (n = 350,000). AID 651687;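 active means every replicate shows inhibition of at least 40%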;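 further: 0% = neutral control wells and 100% = positive control wells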
Yeast UUG start = modulators of yeast start codon fidelity, primary screen, whole organism, S. cerevisiae, single point, plate reader | AID 602363, 2012 | actives 0.13% (n = 350,000) | activity score, % at 18.7 µM | S. cerevisiae UUG-firefly luciferase reporter, luminescence/redox ratio;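 active means replicate mean at a twofold rise or more, about +100% in these data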;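 further: firefly luciferase made from a UUG start codon reports start codon fidelity; reporter light over untreated wells divided by growth signal over untreated wells; some hits fall short of that in this replicate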
An asterisk follows results filed as active; . = no result.

1: COCC(C)n1c(C)cc(C(=O)COC(=O)c2oc3ccccc3c2C)c1C (stereo unspecified)
2: Cc1noc(C)c1NC(=O)N(C)C[C@H]1Oc2ccc(NC(=O)CCC(F)(F)F)cc2CC(=O)N([C@H](C)CO)C[C@H]1C
3: CCCNC(=O)NC(=O)CSc1nnc(C)n1N
4: O=c1cc(CN2CCN(Cc3ccccc3)CC2)c2cc3c(cc2o1)CCC3
5: CCCCCCC[C@@H](C/C=C/CCC(=O)N(C)C/C(=C/Cl)C/C(=C\C(=O)N1CC(OC)=CC1=O)OC)OC
6: C[C@H]1CN([C@@H](C)CO)C(=O)c2cc(C#CC3(O)CCCC3)cnc2O[C@H]1CN(C)C
7: CCSc1nnc(-c2cccnc2)n1-c1ccc(Cl)c(C)c1
8: COc1cccc(-n2c(SCC(=O)O)nnc2-c2cccnc2)c1
assay / compound | 1 | 2 | 3 | 4 | 5 | 6 | 7 | 8
Statin myotox sup | 73.3* | -11.2 | 79.7* | 114.6* | -3.8 | -1.6 | 111.2* | -1.3
iPSC survival up | 4.4 | . | 1.3 | -0.5 | 34.8* | . | -0.1 | 5.1
FN deposition inh | . | -9.8 | . | -0.4 | 0.0 | -7.6 | . | .
PGC1a acetyl inh | -6.4 | 13.0 | -6.3 | 15.6 | 32.6 | 4.7 | 8.5 | 5.2
Yeast UUG start | -20.3 | 10.5 | 10.6 | -1.1 | 12.0 | -7.5 | -10.9 | -10.3

9: C[C@@H]1CN([C@@H](C)CO)C(=O)Cc2cc(N(C)C)ccc2O[C@H]1CN(C)C(=O)Nc1ccc(F)cc1
10: C[C@H](CO)N1C[C@H](C)[C@@H](CN(C)CC2CCCCC2)OCCCC[C@H](C)Oc2ccc(NC(=O)Nc3ccc4c(c3)OCO4)cc2C1=O
11: COc1ccc(NC(=O)Nc2ccc3c(c2)C(=O)N([C@H](C)CO)C[C@H](C)[C@@H](CN(C)CC2CCCCC2)OCCCC[C@@H](C)O3)cc1
12: COc1ccc(NC(=O)Nc2ccc3c(c2)C(=O)N([C@@H](C)CO)C[C@@H](C)[C@@H](CN(C)CC2CCCCC2)OCCCC[C@H](C)O3)cc1
13: C[C@@H]1CCCCO[C@H](CN(C)CC2CCCCC2)[C@H](C)CN([C@H](C)CO)C(=O)c2cc(NC(=O)Nc3ccc4c(c3)OCO4)ccc2O1
14: COc1ccc(C2CC(C(F)(F)F)n3nc(C(=O)NCCN4CCOCC4)cc3N2)cc1 (stereo unspecified)
15: COc1ccc(NC(=O)c2cc3n(n2)C(C(F)(F)F)CC(c2ccc(OC)cc2)N3)cc1 (stereo unspecified)
16: C[C@H](CO)N1C[C@H](C)[C@@H](CN(C)C(=O)NC2CCCCC2)OCCCC[C@H](C)Oc2ccc(NC(=O)Nc3cccc4ccccc34)cc2C1=O
assay / compound | 9 | 10 | 11 | 12 | 13 | 14 | 15 | 16
Statin myotox sup | -3.1 | 69.6* | 18.9 | 89.4* | 1.4 | 89.8* | -28.3 | 121.7*
iPSC survival up | . | . | . | . | . | 0.6 | 1.0 | .
FN deposition inh | . | . | . | . | . | -2.0 | 2.1 | .
PGC1a acetyl inh | -0.1 | -20.9 | 4.0 | 13.4 | -22.0 | -1.5 | 2.4 | 9.0
Yeast UUG start | 13.1 | -0.5 | -4.2 | 4.8 | 4.9 | -21.7 | -18.0 | -6.6

3 compounds already listed, arranged by SMILES length, low to high.
14: COc1ccc(C2CC(C(F)(F)F)n3nc(C(=O)NCCN4CCOCC4)cc3N2)cc1 (stereo unspecified)
13: C[C@@H]1CCCCO[C@H](CN(C)CC2CCCCC2)[C@H](C)CN([C@H](C)CO)C(=O)c2cc(NC(=O)Nc3ccc4c(c3)OCO4)ccc2O1
12: COc1ccc(NC(=O)Nc2ccc3c(c2)C(=O)N([C@@H](C)CO)C[C@@H](C)[C@@H](CN(C)CC2CCCCC2)OCCCC[C@H](C)O3)cc1
assay / compound | 14 | 13 | 12
Statin myotox sup | 89.8* | 1.4 | 89.4*
iPSC survival up | 0.6 | . | .
FN deposition inh | -2.0 | . | .
PGC1a acetyl inh | -1.5 | -22.0 | 13.4
Yeast UUG start | -21.7 | 4.9 | 4.8

Other compounds.
17: C[C@@H]1CN([C@H](C)CO)C(=O)c2cc(NS(=O)(=O)c3ccccc3)ccc2O[C@@H](C)CCCCO[C@@H]1CN(C)C(=O)C1CCCCC1
18: C[C@@H]1CN([C@@H](C)CO)C(=O)c2cc(NC(=O)Nc3cccc4ccccc34)ccc2O[C@@H](C)CCCCO[C@@H]1CN(C)C(=O)NC1CCCCC1
19: C[C@@H]1CCCCO[C@@H](CN(C)C(=O)C2CCCCC2)[C@H](C)CN([C@@H](C)CO)C(=O)c2cc(NC(=O)c3ccncc3)ccc2O1
20: C[C@@H]1CCCCO[C@@H](CN(C)C(=O)C2CCCCC2)[C@@H](C)CN([C@@H](C)CO)C(=O)c2cc(NC(=O)c3ccncc3)ccc2O1
21: C[C@@H]1CCCCO[C@@H](CN(C)C(=O)Nc2cccc3ccccc23)[C@H](C)CN([C@H](C)CO)C(=O)c2cc(NC(=O)c3ccncc3)ccc2O1
22: C[C@@H]1CN([C@@H](C)CO)C(=O)c2cc(NC(=O)c3ccncc3)ccc2O[C@@H](C)CCCCO[C@H]1CN(C)C(=O)Nc1cccc2ccccc12
23: C[C@@H]1CCCCO[C@H](CN(C)C(=O)C2CCCCC2)[C@H](C)CN([C@H](C)CO)C(=O)c2cc(NS(=O)(=O)c3ccccc3)ccc2O1
24: Cc1ccc2c(c1)Sc1ccccc1CC2=O
assay / compound | 17 | 18 | 19 | 20 | 21 | 22 | 23 | 24
Statin myotox sup | 8.4 | 51.3 | 94.7* | 29.2 | 134.9* | -21.7 | 89.2* | 82.9*
iPSC survival up | . | . | . | . | . | . | . | -1.1
FN deposition inh | -0.2 | . | . | . | . | . | -3.7 | .
PGC1a acetyl inh | 4.8 | 9.2 | -13.8 | 0.7 | -6.6 | -19.3 | -6.7 | -2.7
Yeast UUG start | 2.2 | -1.3 | -1.6 | 4.6 | -8.2 | 12.2 | 5.1 | -9.3

25: C=CCn1c(NCCO)nc2sc3c(c2c1=O)CCC3
26: O=C(C[C@H]1CC[C@@H]2[C@H](COC[C@@H](O)CN2CC2CCOCC2)O1)NCC1CC1
27: CCSC1(SCC)N=C(N)C2(C#N)C(c3ccc(F)cc3)C12C#N (stereo unspecified)
28: COC1(OC)N=C(N)C2(C#N)C(c3ccc(F)cc3)C12C#N (stereo unspecified)
29: O=C(c1cccnc1)N1CC2(C1)[C@H](c1ccccc1)[C@H](CO)N2C(=O)C1CCC1
30: CCCCn1c(=O)[nH]c(=O)c2c1nc(CN1C(=O)c3ccccc3S1(=O)=O)n2CCC
31: CCCCn1c(=O)[nH]c(=O)c2c1nc(Cn1ncc(Cl)c(Cl)c1=O)n2CCC
32: Clc1ccc2ccc3cccnc3c2n1
assay / compound | 25 | 26 | 27 | 28 | 29 | 30 | 31 | 32
Statin myotox sup | 15.1 | 8.0 | 141.8* | -10.0 | . | -5.8 | -34.4 | 0.4
iPSC survival up | -1.1 | . | -0.6 | 0.7 | . | -4.6 | 20.0* | -0.3
FN deposition inh | 36.9* | 3.0 | . | . | . | . | -15.2 | 9.8
PGC1a acetyl inh | -12.9 | 3.7 | -6.2 | -7.4 | 2.1 | . | . | -1.2
Yeast UUG start | -4.1 | 4.9 | -3.3 | -6.5 | . | 8.5 | 2.4 | -18.3

Gathered by group: the entries above containing an NH in an aromatic ring.
30: CCCCn1c(=O)[nH]c(=O)c2c1nc(CN1C(=O)c3ccccc3S1(=O)=O)n2CCC
31: CCCCn1c(=O)[nH]c(=O)c2c1nc(Cn1ncc(Cl)c(Cl)c1=O)n2CCC
assay / compound | 30 | 31
Statin myotox sup | -5.8 | -34.4
iPSC survival up | -4.6 | 20.0*
FN deposition inh | . | -15.2
PGC1a acetyl inh | . | .
Yeast UUG start | 8.5 | 2.4

Next part
33: O=S1(=O)Nc2c(ccc3cccnc23)-c2ccccc21
34: O=c1[nH]c2ccccc2nc1/C=C/c1ccc(Cl)cc1
35: O=C(N/N=C/c1ccc(N2CCCC2)c([N+](=O)[O-])c1)c1cccnc1
36: O=C(N/N=C/c1ccc(N2CCOCC2)c([N+](=O)[O-])c1)c1ccc(F)cc1
37: CCOC(=O)c1c2c3c(cccc3n(C)c1=O)C(=O)c1ccccc1-2
38: CCOC(=O)c1c2c(n(Cc3ccccc3)c1C)C(=O)C(=O)c1ccccc1-2
39: O=S(=O)(Nc1cc(Sc2ncn[nH]2)c(O)c2ccccc12)c1ccccc1
40: C[C@@H]1CN([C@@H](C)CO)S(=O)(=O)c2ccc(C3=CCCCC3)cc2O[C@H]1CN(C)C(=O)C1CCCCC1
assay / compound | 33 | 34 | 35 | 36 | 37 | 38 | 39 | 40
Statin myotox sup | 109.1* | 119.8* | . | -13.5 | -32.3 | . | . | -41.8
iPSC survival up | -3.4 | -1.9 | 1.2 | -0.7 | -0.3 | -1.2 | -1.3 | .
FN deposition inh | . | -5.6 | 31.2* | 3.2 | 3.0 | 30.0* | 20.9 | .
PGC1a acetyl inh | -50.7 | -13.4 | . | 14.6 | . | . | 72.4* | 6.7
Yeast UUG start | -24.7 | 0.1 | . | 1.2 | -8.6 | . | . | 7.2

41: COc1ccc(C2NCCc3cc(OC)c(OC)cc32)cc1OC (stereo unspecified)
42: COc1cc2c(cc1OC)C(c1ccc(Br)cc1)NCC2 (stereo unspecified)
43: O=C(Oc1ccc[nH]c1=O)c1cc([N+](=O)[O-])cc([N+](=O)[O-])c1
44: c1ccc2c(c1)ncn2-c1ncnc2sc3c(c12)CCCC3
assay / compound | 41 | 42 | 43 | 44
Statin myotox sup | 0.8 | . | -0.3 | -8.1
iPSC survival up | 0.2 | 0.9 | -0.6 | -2.8
FN deposition inh | active | 4.6 | -2.0 | 1.1
PGC1a acetyl inh | -0.6 | 14.4 | 53.2* | 13.4
Yeast UUG start | 0.3 | -14.1 | -15.7 | -10.8
